# Measured values published in PubChem BioAssay AID488835 (Broad Institute, 2010).
# By UniProt entry, the sequences of proteins in these tests, tags left out. Where a name states a change or a piece, a line headed by the entry shows the natural chain unless it says otherwise.
# UniProt Q9H3R0: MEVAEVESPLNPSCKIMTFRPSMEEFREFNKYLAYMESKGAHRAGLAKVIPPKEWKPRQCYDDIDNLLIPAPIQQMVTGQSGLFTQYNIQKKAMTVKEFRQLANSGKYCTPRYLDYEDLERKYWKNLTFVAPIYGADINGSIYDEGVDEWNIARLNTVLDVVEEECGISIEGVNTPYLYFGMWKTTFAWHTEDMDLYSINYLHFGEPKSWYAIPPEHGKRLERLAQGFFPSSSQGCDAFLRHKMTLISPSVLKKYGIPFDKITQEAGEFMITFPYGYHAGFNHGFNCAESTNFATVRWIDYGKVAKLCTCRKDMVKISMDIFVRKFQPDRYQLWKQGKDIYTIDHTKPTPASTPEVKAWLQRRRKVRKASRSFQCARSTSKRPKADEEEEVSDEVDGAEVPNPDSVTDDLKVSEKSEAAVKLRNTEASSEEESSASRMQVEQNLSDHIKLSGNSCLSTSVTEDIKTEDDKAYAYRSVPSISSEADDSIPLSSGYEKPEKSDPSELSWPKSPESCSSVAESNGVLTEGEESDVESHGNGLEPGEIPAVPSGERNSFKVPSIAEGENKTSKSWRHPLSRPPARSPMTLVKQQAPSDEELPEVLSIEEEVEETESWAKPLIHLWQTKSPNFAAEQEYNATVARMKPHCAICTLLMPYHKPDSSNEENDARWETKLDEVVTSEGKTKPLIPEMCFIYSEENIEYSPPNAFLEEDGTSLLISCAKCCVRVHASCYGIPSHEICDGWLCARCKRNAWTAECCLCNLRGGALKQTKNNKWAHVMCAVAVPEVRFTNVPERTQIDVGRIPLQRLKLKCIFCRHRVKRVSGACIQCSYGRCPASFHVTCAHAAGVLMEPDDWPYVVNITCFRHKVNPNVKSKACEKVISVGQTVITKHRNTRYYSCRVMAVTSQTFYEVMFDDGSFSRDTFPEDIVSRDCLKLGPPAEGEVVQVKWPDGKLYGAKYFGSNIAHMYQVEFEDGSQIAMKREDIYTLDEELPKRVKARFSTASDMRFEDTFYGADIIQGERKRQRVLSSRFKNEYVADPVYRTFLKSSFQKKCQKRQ
# The entries are a selection whose mix differs from that of the whole data set. Results with a measured potency or affinity are listed apart. Active and inactive are the calls of the source.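 How the source made its calls: active means Half-maximal inhibitory dose from the fit at or below ten times the top valid tested dose; inconclusive means Invalid fit, or flat curve showing 30 to 70% inhibition; inactive means the rest.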
# Molecular target: Lysine-specific demethylase 4C (Homo sapiens) (UniProt Q9H3R0)
# Assay: inhibition of JMJD2C H3K9me3 demethylation – biochemical, DELFIA europium, cherry-picked samples, dose response (AID 488835);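 further: signal is the H3K9me2 demethylation product detected by a dimethyl-specific antibody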
# Settings: GST-JMJD2C(1-420); at 6 µM (top of the series)
row,Compound,"activity change, negative = inhibition"
1,Cc1ccc(OCC(=O)OC2CN3CCC2CC3)cc1 (stereo unspecified),inactive: 2.04%
